Numbering of substitutions follows the chain as printed.
T1: HLA-DQ2.5 on HLA-DQ2.5 positive PBMC-B cells (human, UniProt P01909 24-254; P01920 33-261)
T1 construct: also called DQ2.5 + PBMC; HLA-DQ2.5+PBMC B cell
T1 MHC II alpha: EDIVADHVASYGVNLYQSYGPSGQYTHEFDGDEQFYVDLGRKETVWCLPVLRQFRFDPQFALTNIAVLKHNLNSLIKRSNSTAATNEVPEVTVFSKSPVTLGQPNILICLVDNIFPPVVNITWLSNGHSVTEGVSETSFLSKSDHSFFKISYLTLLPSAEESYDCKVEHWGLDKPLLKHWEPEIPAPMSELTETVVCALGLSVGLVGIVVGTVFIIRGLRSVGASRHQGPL
T1 MHC II beta: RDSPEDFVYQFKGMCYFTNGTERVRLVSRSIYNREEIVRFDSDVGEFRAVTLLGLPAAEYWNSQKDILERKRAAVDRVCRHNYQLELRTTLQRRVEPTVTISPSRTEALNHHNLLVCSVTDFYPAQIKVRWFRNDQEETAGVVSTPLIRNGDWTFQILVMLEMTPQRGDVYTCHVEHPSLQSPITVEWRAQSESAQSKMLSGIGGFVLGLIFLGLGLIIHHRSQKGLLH

T2: HLA-DQ2.5 on Ba/F3 cells (not in the form of a complex with a linked peptide) (human, UniProt P01909 24-254; P01920 33-261)
T2 construct: also called Ba/F3-HLA-DQ2.5; No peptide
T2 MHC II alpha: T1 MHC II alpha
T2 MHC II beta: T1 MHC II beta

B1: DQN0344xx (antibody, human IgG1, kappa, V domains shown)
VH: QSLEESGGGLVKPGGTLTLTCTASGFSFSSSYWMCWVRQAPGKGLEWVACVYGGSDTTYYASWTKGRFTISKGSSTTVALQVTSLTAADTATYFCARDPLNYYYYGELNLWGPGTLVTVSS
VL: AVVLTQTASPVSAAVGGTVTIRCQATENIYSGLAWYQQKPGQPPKVLIYYVSTLASGVPSRFKGSGSGTEYTLTISGVQCDDAATYYCQTYHDISNVTFGGGTKVEIKR
notes: also called DQN0344Hx; DQN0344Lx
B2: DQN0271hh (antibody, human IgG1, kappa, V domains shown)
VH: QSLEESGGGLVKPGASLTLTCKASGFSFSSGYYMCWVRQAPGKGLEWIACIYAGSPDLTYYATWAKGRLTISTTSSTTVTLQLTSLTAADTATYFCARDPGNWGGYDDVRLWGPGTLVTVSS
VL: AQVLTQTPSPVSAAVGGTVTISCQSSQSIYSNYLSWFQQKTGQPPKLLIYRASTLASGVPSRFKGSGSGTEFTLTISGVECDDAATYYCQGYYSGAIWTFGGGTKVEIKR
notes: also called DQN0271Lh
B3: DQN0225dd (antibody, human IgG1, kappa, V domains shown)
VH: QSLEESGGGLVKPGGTLTLTCTASGFSFSSAYYMCWVRQAPGKGLEWIACIYVGSGSTYYASWAQGRCTISKASSTTVTLQMTSLTAADTATYFCARDPLIYYYYGELNLWGPGTLVTVSS
VL: AVVLTQTASPVSAPVGGTVTIKCQASEDISSNLAWYQQKPGQRPKVLIYSASTLASGVSSQFKGSGSGTQFTLTISDLECADAATYYCQSYYDISSVTFGGGTKVEIKR
notes: also called DQN0225Hd; DQN0225Ld
B4: DQN0370hh (antibody, human IgG1, kappa, V domains shown)
VH: B3 VH with T16P, A61T, Q65K, C68F, A73V, V78M
VL: AVVLTQTASPVSAPVGGTVTIKCQASEDIYSNLAWYQQKPGQRPKVLIYSASTLASGVSSRFKGSRSGTEYTLSITDLGCADAATYYCQAYYDIGGVTFGGGTKVEIKR
notes: also called DQN0370Lh
B5: DQN0282ff (antibody, human IgG1, kappa, V domains shown)
VH: QSVEESGGRLVTPGTPLTLSCKASGFDFSIYYMSWVRQAPGKGLEWIGVINSGGGVTWYASWVKGRFTISKTSTTVDLKITSPTTEDTATYFCARLGDSNHYDLWGPGTLVTVSS
VL: AYDMTQTPSSVSAAVGGTVTIKCQASETISSYLAWYQQKPGQRPQLLIYDASNLASGVPSRFKGSGSGTEFTLTISDLECADAATYYCQTHYYITSTTFGGGTKVEIKR
notes: also called DQN0282Hf; DQN0282Lf
B6: DQN0334bb (antibody, human IgG1, kappa, V domains shown)
VH: QQQLEESGGDLVQPEGSLTLTCKASGFDFSFNAMCWVRQAPGRGPEWIACIYNGNGSTYYASWAKGRFTISKTSSTSVTLQMTSLTAADTATYFCARGGYGLGYAGYGDVNYFNLWGPGTLVTVSS
VL: AVVLTQTASPVSAPVGGTVTIKCQASEDIYFLLAWYRQKPGQPPKLLIYGASTLASGVPSRFKGSGSGTEYTLTISDLECADAATYYCQSYWYGDSGPNTFGGGTKVEIKR
notes: also called DQN0334Hb; DQN0334Lb
B7: DQN0324hh (antibody, human IgG1, kappa, V domains shown)
VH: QSLEESGGDLVKPGASLALTCTASGFSLINNYYMCWVRQAPGKGLEWIACIYAGLGGWTYYASWAKGRFTISKTSSTTVTLQMSSLTVADAATYFCARAATTYYHFNLWGPGTLVTVSS
VL: AVVLTQTESPVSAAVGDTVTIKCQASQSIGNALAWYQQKPGQPPKLLIYDASTLASGVPSRFKGSGSGTQFTLTISDLECADAATYYCQSYDYGSSADTYTFGGGTKVEIKR
notes: also called DQN0324Lh
B8: DQN0089ff (antibody, V domains shown)
VH: QEQVVEYGGDLVQPEGSLTLTCKASGLDFSSTYYMCWVRQAPGKGLEWIGCIYGGSSDSTYYASWAKGRFTISKTSPTTVTLQMTSLTAADTATHFCATYDYGAVGYDLWGPGTLVTVSS
VL: EVVVTQTPASVEVAVGGTVTIKCQASQNISPYLSWYQQKPGQPPKLLIYKASTLASGVSSRFKGSGSGTQFTLTISDLECADAATYYCQNNYGVSINYGHTFGGGTKVEIK
notes: also called DQN0089Hf; DQN0089Lf
B9: DQN0235ee (antibody, human IgG1, kappa, V domains shown)
VH: QQQLEESGGGLVKPGGTLTLTCKAGIDFSTYYYMCWVRQAPGKRPEWIACIFDGDGSTYYASWVNGRFTISKASSTTVTLRMTSLTAADTATYFCARSAGGSSSFGYFNLWGPGTLVTVSS
VL: AYDMTQTPSSVSAAVGGTVTIKCQASQSISSSYLAWYHQKPGQSPKLLIYSASTLASGVPSRFKGSGSGTEFTLTISDLACADAATYYCQSYYYFSSNAWHTFGGGTKVEIKR
notes: also called DQN0235He; DQN0235Le

biological target: T3, HLA-DQ2.5/Hepatitis B virus peptide complex on Ba/F3 cells (human; Hepatitis B virus, UniProt P01909 24-254); assay: FACS, FIG. 28

| Binder | binding result |
| --- | --- |
| B1 | no binding (tested: 10 microgram/mL) |
| B2 | no binding (tested: 10 microgram/mL) |
| B3 | no binding (tested: 10 microgram/mL) |
| B4 | no binding (tested: 10 microgram/mL) |
| B5 | no binding (tested: 10 microgram/mL) |
| B6 | no binding (tested: 10 microgram/mL) |
| B7 | no binding (tested: 10 microgram/mL) |

biological target: T4, HLA-DQ2.5/Mycobacterium bovis peptide complex on Ba/F3 cells (human; Mycobacterium bovis, UniProt P01909 24-254); assay: FACS, FIG. 27

| Binder | binding result |
| --- | --- |
| B1 | no binding (tested: 10 microgram/mL) |
| B2 | no binding (tested: 10 microgram/mL) |
| B3 | no binding (tested: 10 microgram/mL) |
| B4 | no binding (tested: 10 microgram/mL) |
| B5 | no binding (tested: 10 microgram/mL) |
| B6 | no binding (tested: 10 microgram/mL) |
| B7 | no binding (tested: 10 microgram/mL) |

biological target: T5, HLA-DQ7.5 on Ba/F3 cells (human, UniProt P01909 24-254; P01920 33-261); assay: FACS, FIG. 32
T5 construct: also called Ba/F3-HLA-DQ7.5

| Binder | binding result |
| --- | --- |
| B8 | no binding (tested: 10 microgram/mL) |

Biological target: T1, HLA-DQ2.5 on HLA-DQ2.5 positive PBMC-B …
Assay: FACS

| Binder | FIG. 30 FACS value (IC17=0, DQN0139bb=100) |
| --- | --- |
| B1 | -0.1 |
| B4 | -0.1 |

biological target: T6, HLA-DQ2.5/alpha 1b gliadin peptide complex on Ba/F3 cells (human; wheat); assay: FACS
T6 construct: also called Ba/F3-HLA-DQ2.5/alpha 1b gliadin peptide

| Binder | FIG. 30 FACS value (IC17=0, DQN0139bb=100) |
| --- | --- |
| B9 | 66.9 |

Biological target: T2, HLA-DQ2.5 on Ba/F3 cells (not in the …)
Assay: FACS

| Binder | FIG. 30 FACS value (IC17=0, DQN0139bb=100) |
| --- | --- |
| B4 | 0 |
| B8 | 118 |

biological target: T7, HLA-DQ2.5/salmonella peptide complex on Ba/F3 cells (human; salmonella, UniProt P01909 24-254); assay: FACS

| Binder | FIG. 30 FACS value (IC17=0, DQN0139bb=100) |
| --- | --- |
| B1 | -0.1 |
| B2 | -0.1 |
| B3 | -0.2 |
| B4 | -0.1 |
| B5 | 2 |
| B6 | 0 |
| B7 | -0.1 |

biological target: T4, HLA-DQ2.5/Mycobacterium bovis peptide …; assay: FACS

| Binder | FIG. 30 FACS value (IC17=0, DQN0139bb=100) |
| --- | --- |
| B2 | 0.1 |
| B3 | 0 |
| B4 | 0 |
| B5 | 2.4 |
| B6 | 0.3 |
| B7 | -0.1 |

biological target: T3, HLA-DQ2.5/Hepatitis B virus peptide …; assay: FACS

| Binder | FIG. 30 FACS value (IC17=0, DQN0139bb=100) |
| --- | --- |
| B1 | -0.1 |
| B2 | -0.1 |
| B3 | 1 |
| B4 | 0 |
| B5 | 1.9 |
| B6 | 0.1 |
| B7 | -0.1 |

biological target: T7, HLA-DQ2.5/salmonella peptide complex on …; assay: FACS, FIG. 26

| Binder | binding result |
| --- | --- |
| B1 | no binding (tested: 10 microgram/mL) |
| B2 | no binding (tested: 10 microgram/mL) |
| B3 | no binding (tested: 10 microgram/mL) |
| B4 | no binding (tested: 10 microgram/mL) |
| B5 | no binding (tested: 10 microgram/mL) |
| B6 | no binding (tested: 10 microgram/mL) |
| B7 | no binding (tested: 10 microgram/mL) |
